Our source for the IC50 values is patent US9181266B2, “2-piperidin-1-yl-acetamide compounds for use as tankyrase inhibitors” (NOVARTIS AG, priority 2011, dated 2015).

Chains of the proteins cited; added tags and fusions are not shown. Lines headed by an entry give the natural chain unless they say otherwise; changes in a name come on top.
UniProt O88554: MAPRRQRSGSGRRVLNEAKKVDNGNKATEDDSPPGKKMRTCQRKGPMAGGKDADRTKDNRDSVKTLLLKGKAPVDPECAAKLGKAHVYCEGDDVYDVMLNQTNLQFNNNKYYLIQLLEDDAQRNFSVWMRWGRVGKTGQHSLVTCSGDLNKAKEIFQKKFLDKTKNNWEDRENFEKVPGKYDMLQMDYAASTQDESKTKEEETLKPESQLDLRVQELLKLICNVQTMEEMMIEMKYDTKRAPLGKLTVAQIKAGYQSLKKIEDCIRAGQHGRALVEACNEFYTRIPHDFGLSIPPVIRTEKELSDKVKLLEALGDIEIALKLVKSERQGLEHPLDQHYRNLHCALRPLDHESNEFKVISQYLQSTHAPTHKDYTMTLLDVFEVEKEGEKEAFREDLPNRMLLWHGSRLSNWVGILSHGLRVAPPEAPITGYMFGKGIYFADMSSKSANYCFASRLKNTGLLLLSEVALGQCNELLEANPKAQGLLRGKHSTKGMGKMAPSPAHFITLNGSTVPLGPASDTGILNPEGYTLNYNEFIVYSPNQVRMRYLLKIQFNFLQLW
UniProt P09874, whole entry: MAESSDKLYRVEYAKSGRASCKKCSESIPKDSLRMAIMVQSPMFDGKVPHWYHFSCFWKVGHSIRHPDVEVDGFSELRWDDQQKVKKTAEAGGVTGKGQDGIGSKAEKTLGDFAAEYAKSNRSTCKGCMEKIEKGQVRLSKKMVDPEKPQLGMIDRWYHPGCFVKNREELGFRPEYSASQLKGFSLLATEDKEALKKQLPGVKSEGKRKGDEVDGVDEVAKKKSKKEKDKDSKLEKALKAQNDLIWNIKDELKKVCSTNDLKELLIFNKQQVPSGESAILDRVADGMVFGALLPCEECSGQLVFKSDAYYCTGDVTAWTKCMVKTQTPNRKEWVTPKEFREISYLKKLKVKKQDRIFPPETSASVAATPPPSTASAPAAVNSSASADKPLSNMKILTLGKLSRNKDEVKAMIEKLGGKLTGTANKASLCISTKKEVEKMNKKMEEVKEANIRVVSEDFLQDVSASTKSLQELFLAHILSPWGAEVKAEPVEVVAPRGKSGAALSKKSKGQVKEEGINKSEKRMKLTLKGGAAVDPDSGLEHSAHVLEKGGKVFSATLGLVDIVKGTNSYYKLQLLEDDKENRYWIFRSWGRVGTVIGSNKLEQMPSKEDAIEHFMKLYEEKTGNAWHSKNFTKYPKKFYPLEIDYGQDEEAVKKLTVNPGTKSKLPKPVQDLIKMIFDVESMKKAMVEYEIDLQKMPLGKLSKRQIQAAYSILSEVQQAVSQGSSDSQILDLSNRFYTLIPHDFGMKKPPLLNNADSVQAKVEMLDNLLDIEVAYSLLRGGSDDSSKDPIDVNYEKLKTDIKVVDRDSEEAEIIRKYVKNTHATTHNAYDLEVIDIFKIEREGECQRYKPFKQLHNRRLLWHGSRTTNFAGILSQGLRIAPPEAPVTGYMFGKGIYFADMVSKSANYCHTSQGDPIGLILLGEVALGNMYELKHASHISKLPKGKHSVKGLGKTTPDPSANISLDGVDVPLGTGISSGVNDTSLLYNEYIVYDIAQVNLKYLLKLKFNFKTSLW

One assay has as its target PARP2 (Mus musculus (Mouse), UniProt O88554). The experiment in a line: PARP2 autoparsylation assay (LC/MS detection of nicotinamide). The settings on record: 20 nM enzyme, 250 μM β-NAD+, 60 min. It is filed as biochemical. As for the experimental part: (§1) The autoparsylation activity of the TNKS 1/2 or PARP1/2 enzymes was measured by the liquid chromatography-mass spectrometry (LC/MS) detection of nicotinamide as readout. Compound activity in inhibiting the TNKS and PARP autoparsylation was evaluated by IC50 measurements.

The target of the next assay is Human PARP1 (Homo sapiens (Human), UniProt P09874). The experiment in a line: PARP1 autoparsylation assay (LC/MS detection of nicotinamide). Type of assay: biochemical. To be noted: 20 nM enzyme, 250 μM β-NAD+, 60 min. As for the experimental part: as §1

Structures are written as SMILES. Where only a bound is given, the exact number is not on record here.

On PARP2, `O=C(c1ccc(F)cc1)C1CCN(CC(=O)N(Cc2nc3c(c(=O)[nH]2)COCC3)Cc2cccs2)CC1` [Example 13, 2-(4-(4-Fluorobenzoyl)piperidin-1-yl)-N-((4-oxo-4,5,7,8-tetrahydro-3H-pyrano[4,3-d]pyrimidin-2-yl)methyl)-N-(thiophen-2-ylmethyl)acetamide] displayed an IC50 of over 19 µM.
Turning to `O=C(c1ccc(F)cc1)C1CCN(CC(=O)N(Cc2ccccc2)Cc2nc3c(c(=O)[nH]2)COCC3)CC1` [Example 38, N-Benzyl-2-(4-(4-fluorobenzoyl)piperidin-1-yl)-N-((4-oxo-4,5,7,8-tetrahydro-3H-pyrano[4,3-d]pyrimidin-2-yl)methyl)acetamide], the IC50 on PARP2 is over 19 µM.
Consider `CC(C)CN(Cc1nc2c(c(=O)[nH]1)COCC2)C(=O)CN1CCC(C(=O)c2ccc(F)cc2)CC1` [Example 26, 2-(4-(4-Fluorobenzoyl)piperidin-1-yl)-N-isobutyl-N-((4-oxo-4,5,7,8-tetrahydro-3H-pyrano[4,3-d]pyrimidin-2-yl)methyl)acetamide], for which the IC50 against Human PARP1 and at PARP2 was over 19 µM each time.
At PARP2, `O=C(CN1CCC(C(=O)c2ccc(F)cc2)CC1)NCc1nc2c(c(=O)[nH]1)COCC2` [Example 1, 2-(4-(4-Fluorobenzoyl)piperidin-1-yl)-N-((4-oxo-4,5,7,8-tetrahydro-3H-pyrano[4,3-d]pyrimidin-2-yl)methyl)acetamide] displayed an IC50 of 3.1 ± 1.1 µM.
